Laboratory results published in US20180153984A1, “ADJUVANT PARTICLES COMPRISING ADENOSINE RECEPTOR ANTAGONISTS” (The Regents of the University of California, priority 2015, published 2018).

Tested on: 4T1-1 2B mammary carcinoma cells
Experiment: Antitumor adjuvant effect: intratumoral injection into bilateral mammary fat pad tumors

Which tumor growth (IP administration of 1 mg/kg) does the source give for `Nc1nc2c(cnn2CCc2ccccc2)c2nc(-c3ccco3)nn12` [SCH58261, 5-Amino-7-(2-phenylethyl)-2-(2-furyl)-pyrazolo(4,3-e)-1,2,4-triazolo(1,5-c)pyrimidine] here?
The tumor growth was “minimally reduced tumor growth”.

What about the “efficacy of IT injection relative to SCH-particles” value (IT injection of free antagonist) of the same compound?
The value was “much less effective”.
